This passage reports Kd and kon results from paper PMC5962738.

By UniProt entry, the sequences of proteins in these tests, tags left out. Residues count along the entry.
UniProt P02751, 32-2477: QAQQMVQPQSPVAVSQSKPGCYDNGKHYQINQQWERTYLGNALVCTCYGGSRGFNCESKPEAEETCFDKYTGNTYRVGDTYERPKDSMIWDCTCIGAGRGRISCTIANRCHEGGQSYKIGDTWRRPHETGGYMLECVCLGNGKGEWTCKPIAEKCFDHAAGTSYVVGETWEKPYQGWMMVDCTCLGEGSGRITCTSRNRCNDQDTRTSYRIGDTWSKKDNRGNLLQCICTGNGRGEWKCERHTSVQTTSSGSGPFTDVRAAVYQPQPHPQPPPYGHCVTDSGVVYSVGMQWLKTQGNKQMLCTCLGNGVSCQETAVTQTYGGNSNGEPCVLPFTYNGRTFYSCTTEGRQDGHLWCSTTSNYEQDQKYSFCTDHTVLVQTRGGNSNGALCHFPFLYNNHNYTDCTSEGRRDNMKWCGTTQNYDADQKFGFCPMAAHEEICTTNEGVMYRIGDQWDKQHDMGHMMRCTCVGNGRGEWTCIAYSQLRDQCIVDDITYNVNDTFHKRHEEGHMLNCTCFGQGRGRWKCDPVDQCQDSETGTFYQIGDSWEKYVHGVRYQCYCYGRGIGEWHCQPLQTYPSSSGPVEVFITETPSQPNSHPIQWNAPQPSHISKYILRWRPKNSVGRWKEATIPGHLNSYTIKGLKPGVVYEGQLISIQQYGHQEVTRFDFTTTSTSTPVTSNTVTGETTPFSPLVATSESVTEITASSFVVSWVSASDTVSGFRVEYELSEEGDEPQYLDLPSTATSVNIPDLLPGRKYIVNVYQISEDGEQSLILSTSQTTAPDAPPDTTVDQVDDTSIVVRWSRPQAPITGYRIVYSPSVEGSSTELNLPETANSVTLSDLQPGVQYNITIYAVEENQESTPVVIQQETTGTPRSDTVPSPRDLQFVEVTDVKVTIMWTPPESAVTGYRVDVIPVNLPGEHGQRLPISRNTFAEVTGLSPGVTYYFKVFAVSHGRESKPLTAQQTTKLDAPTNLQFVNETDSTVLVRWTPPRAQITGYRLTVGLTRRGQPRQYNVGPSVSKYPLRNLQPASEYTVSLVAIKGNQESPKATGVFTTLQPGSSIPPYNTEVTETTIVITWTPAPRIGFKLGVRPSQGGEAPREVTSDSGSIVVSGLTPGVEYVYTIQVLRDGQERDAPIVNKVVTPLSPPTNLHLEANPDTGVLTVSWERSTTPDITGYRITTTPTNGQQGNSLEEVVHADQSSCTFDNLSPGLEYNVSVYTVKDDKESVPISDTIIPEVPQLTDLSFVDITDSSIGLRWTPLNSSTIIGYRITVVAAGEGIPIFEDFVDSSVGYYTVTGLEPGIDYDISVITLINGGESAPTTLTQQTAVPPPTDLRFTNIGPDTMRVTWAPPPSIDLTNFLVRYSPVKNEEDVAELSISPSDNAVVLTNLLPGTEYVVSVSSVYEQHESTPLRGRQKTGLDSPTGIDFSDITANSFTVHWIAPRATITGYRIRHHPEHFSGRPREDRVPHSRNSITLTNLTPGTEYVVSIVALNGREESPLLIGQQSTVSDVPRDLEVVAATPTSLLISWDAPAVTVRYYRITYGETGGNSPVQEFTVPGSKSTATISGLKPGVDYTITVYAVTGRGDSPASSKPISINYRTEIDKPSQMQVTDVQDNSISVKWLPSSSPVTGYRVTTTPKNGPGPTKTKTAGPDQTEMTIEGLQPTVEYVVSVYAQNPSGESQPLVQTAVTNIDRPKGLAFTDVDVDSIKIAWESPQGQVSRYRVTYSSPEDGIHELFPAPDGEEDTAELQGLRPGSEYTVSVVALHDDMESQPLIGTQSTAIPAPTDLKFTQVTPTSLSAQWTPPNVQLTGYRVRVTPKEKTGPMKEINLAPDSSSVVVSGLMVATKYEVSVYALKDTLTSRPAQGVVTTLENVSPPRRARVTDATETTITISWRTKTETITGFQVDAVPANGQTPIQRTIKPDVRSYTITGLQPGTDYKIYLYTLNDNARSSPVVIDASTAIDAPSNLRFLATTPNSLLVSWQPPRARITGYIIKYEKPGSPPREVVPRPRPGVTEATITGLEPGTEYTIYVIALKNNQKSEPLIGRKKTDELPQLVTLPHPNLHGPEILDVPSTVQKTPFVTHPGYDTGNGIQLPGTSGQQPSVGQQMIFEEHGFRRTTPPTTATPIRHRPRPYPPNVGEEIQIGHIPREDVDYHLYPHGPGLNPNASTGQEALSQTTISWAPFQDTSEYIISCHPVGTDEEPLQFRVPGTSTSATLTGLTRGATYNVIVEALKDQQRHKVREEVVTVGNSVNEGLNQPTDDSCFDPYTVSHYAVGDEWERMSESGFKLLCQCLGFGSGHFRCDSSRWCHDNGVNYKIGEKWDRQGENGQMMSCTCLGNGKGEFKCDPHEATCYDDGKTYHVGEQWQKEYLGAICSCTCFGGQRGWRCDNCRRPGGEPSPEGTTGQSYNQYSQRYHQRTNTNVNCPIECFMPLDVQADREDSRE

In this assay the target is Fibronectin (UniProt P02751). As to the kind of experiment: SPR; Biacore X100 Plus; fibronectin amine-coupled to a CM5 chip (2868 RU); rEF-Tu as analyte 0-200 ug/mL in HBS-EP+ (10 mM HEPES, 150 mM NaCl, 3 mM EDTA, 0.05% P20), 30 uL/min for 180 s, dissociation 1,000 s, 20°C. A general note: In SPR one partner is held on a chip, and binding of the other changes the refractive index at the surface.

pKd: −log10 of the molar value.

What is called pKd is the Kd on a negative log10 scale, so that one unit is a factor of ten. By kon is commonly meant the second-order rate constant of association. As for “Recombinant elongation factor thermo unstable (EF-Tu) of Mycoplasma hyopneumoniae (from UniProt Q4A9G1 1-402) (natural protein; other documents disagree on this pair)”, the negative logarithm of the Kd (pKd) is 6.22 and the kon was determined as 3470 M⁻¹ s⁻¹.
